Experimental findings from article PMC6287539 (International Journal for Parasitology: Drugs and Drug …, 2018) are described below.

Test [1] concerns the target T1, Hco-ACC-1 (in the Hco-ACC-1/2 heteromeric channel) (Haemonchus contortus, UniProt A0A219KVV5+A0A219KWM7).
T1 sequence (A0A219KVV5 23-459): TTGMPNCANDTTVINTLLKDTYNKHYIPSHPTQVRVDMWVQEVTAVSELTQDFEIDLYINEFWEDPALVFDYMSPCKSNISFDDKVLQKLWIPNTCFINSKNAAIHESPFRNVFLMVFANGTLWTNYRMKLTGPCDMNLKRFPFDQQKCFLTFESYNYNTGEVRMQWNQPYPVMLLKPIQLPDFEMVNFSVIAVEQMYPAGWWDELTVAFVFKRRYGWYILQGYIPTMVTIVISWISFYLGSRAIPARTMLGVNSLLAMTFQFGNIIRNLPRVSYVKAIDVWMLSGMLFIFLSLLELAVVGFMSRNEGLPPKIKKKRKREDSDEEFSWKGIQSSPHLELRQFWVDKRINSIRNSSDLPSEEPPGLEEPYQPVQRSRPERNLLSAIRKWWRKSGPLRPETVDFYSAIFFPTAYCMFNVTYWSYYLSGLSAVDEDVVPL
T1 sequence (A0A219KWM7 18-443): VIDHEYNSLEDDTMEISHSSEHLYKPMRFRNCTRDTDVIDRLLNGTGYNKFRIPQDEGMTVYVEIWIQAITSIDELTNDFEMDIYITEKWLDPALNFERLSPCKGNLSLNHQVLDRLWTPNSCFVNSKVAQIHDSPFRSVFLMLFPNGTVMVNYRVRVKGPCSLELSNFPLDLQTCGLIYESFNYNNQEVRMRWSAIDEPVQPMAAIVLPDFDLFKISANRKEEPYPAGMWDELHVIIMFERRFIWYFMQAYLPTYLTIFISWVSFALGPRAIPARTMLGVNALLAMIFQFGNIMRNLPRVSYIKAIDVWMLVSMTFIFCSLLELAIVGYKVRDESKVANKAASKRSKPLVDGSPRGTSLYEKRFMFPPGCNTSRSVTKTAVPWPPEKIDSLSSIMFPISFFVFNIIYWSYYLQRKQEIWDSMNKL
Put plainly: two-electrode voltage clamp in Xenopus oocytes, dose-response. Type of test: cell-based. Background: In two-electrode clamp one electrode senses voltage and the other passes current.

For test [2], the target named is T2, Hco-ACC-2 (homomeric channel) (Haemonchus contortus, UniProt A0A219KWM7).
T2 sequence (A0A219KWM7 18-443): T1 sequence (A0A219KWM7 18-443)
The test is described as above. Type of test: cell-based.

One may read the EC50 as the concentration giving half of the maximal effect. Lower therefore signals a more potent agent.

As to `CC(=O)OCC[N+](C)(C)C` [acetylcholine], the half-maximal effective concentration (EC50) turned out to be 5.9 ± 1 µM in test [1] and 19 ± 1 µM in test [2].
